Results: paper PMC2946983 (Bioorganic & medicinal chemistry, 2010)

The chains behind the UniProt entries cited, without tags or fusion partners. Residues count along the entry.
UniProt P28335, 33-458: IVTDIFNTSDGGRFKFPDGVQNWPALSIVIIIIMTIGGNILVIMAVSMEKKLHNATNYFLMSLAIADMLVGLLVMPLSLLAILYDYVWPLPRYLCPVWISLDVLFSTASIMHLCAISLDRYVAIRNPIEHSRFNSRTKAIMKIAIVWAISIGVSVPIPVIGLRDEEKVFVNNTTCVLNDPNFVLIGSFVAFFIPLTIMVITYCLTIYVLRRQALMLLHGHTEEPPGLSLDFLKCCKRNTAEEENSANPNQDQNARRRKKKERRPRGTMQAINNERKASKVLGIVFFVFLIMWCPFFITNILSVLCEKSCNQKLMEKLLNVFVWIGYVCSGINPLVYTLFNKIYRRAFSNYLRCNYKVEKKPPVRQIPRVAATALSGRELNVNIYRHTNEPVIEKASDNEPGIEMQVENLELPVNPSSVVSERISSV

Biological target: cloned human serotonin 5-HT2C receptor (Homo sapiens, UniProt P28335)
Assay: radioligand binding

Compound CN1C[C@@H](NS(=O)(=O)N(C)C)C[C@@H]2c3cccc4c3c(cn4C)C[C@H]21 [[^3H]mesulergine, N′-(1-methyl-6-methylergolin-8alpha-yl)-N,N-dimethylsulfamide, reference compound] has a Kd of 1.8 ± 0.726 nM.
